pIC50: −log10 of the molar value.
Tests used:
[1] = target: PTP-1B (Homo sapiens, UniProt P18031); experiment: In vitro PTPase inhibition assay (pNPP, colorimetric), PTP-1B; assay type: biochemical; conditions: read-out: IC50 values against PTP1B; Table 9; tested form: TFA
Description: PTP-1B enzymatic activity of samples was assayed in microtiter plates as follows. The protein concentration of the PTP-1B enzyme preparation was determined using the Bio-Rad Protein Assay kit (Bio-Rad, Hercules Calif.). […] Reactions were mixed gently and incubated at 37° C. for 60 minutes. Enzymatic cleavage of phosphate from pNPP (a tyrosine phosphate analog) is marked by a colorimetric change in this substrate. See, e.g., Imbert et al., Biochem J., 297:163-173 (1994); Ghosh and Miller, Biochem. Biophys. Res. […] Zanke et al., Eur. J. […] To determine the enzymatic activity, absorbance readings of the reactions were measured at 405 nm using a Molecular Devices Thermomax Plate Reader (Menlo Park Calif.). […] Purified phosphatase was added to the reaction mixtures to begin the reactions; the reactions were incubated at 37° C. for 60 min. […] (for PTP-1C and PTPα assays), stopped, and colorimetrically analyzed as described above. […] First, absorbance readings from the negative control reactions were treated as a baseline and subtracted from the absorbance readings of the experimental reactions. Then, for each reaction, a percent inhibition was calculated using the following formula: […] For each inhibitor compound tested, an IC50 concentration was calculated from a best-fit computer analysis of the calculated percent inhibition for the various dilutions of the compound. […] The protein concentration of the PTP-1B enzyme preparation was determined using the Bio-Rad Protein Assay kit (Bio-Rad, Hercules Calif.). […] To determine the enzymatic activity, absorbance readings of the reactions were measured at 405 nm using a Molecular Devices Thermomax Plate Reader (Menlo Park Calif.). […] (for PTP-1C and PTPα assays), stopped, and calorimetrically analyzed as described above. […] First, absorbance readings from the negative control reactions were treated as a baseline and subtracted from the absorbance readings of the experimental reactions. Then, for each reaction, a percent inhibition was calculated using the following formula: […] […]

The chains behind the UniProt entries cited, without tags or fusion partners. Residues count along the entry.
UniProt P18031, 3-277 limits assumed: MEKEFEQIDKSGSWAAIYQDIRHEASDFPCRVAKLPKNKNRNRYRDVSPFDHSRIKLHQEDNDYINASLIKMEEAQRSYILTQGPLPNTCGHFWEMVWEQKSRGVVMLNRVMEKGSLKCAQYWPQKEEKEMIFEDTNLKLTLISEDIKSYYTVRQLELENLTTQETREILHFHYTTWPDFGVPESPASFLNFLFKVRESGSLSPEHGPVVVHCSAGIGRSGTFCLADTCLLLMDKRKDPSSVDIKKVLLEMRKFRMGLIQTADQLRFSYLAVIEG
UniProt P08575, 599-1306 limits assumed: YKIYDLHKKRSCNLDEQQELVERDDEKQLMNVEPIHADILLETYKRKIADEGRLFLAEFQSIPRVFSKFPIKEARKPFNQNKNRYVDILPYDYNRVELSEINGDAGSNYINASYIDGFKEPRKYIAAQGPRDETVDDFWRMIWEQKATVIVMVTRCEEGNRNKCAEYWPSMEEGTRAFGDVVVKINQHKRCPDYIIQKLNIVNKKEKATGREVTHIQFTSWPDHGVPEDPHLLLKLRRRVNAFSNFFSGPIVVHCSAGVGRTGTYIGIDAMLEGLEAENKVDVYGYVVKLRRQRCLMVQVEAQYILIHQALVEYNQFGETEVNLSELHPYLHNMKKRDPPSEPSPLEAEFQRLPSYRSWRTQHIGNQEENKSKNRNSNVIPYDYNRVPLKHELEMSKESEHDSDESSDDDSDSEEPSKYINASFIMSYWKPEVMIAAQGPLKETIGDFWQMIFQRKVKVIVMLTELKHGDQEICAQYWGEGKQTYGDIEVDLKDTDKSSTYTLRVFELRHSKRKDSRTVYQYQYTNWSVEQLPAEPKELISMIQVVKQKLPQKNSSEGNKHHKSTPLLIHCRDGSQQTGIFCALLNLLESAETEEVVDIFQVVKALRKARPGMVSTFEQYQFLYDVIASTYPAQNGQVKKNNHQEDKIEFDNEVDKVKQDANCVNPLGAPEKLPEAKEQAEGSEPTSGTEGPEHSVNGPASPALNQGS

[2] = target: CD45 (Homo sapiens, UniProt P08575); experiment: In vitro PTPase inhibition assay (pNPP, colorimetric), CD45; assay type: biochemical; conditions: read-out: IC50 values against CD45; Table 9; tested form: TFA
Description: CD45 enzymatic activity of samples was assayed in microtiter plates as follows. […] Louis Mo.), and 80 ul of activity assay buffer (100 mM sodium acetate, pH 6.0, 1 mM EDTA, 0.1% Triton X-100, 15 mM bME). Reactions were mixed gently and incubated at 37° C. for 60 minutes. […] To determine the enzymatic activity, absorbance readings of the reactions were measured at 405 nm using a Molecular Devices Thermomax Plate Reader (Menlo Park Calif.). […] Purified phosphatase was added to the reaction mixtures to begin the reactions; the reactions were incubated at 37° C. for 60 min. […] (for PTP-1C and PTPα assays), stopped, and colorimetrically analyzed as described above. […] First, absorbance readings from the negative control reactions were treated as a baseline and subtracted from the absorbance readings of the experimental reactions. Then, for each reaction, a percent inhibition was calculated using the following formula: […] For each inhibitor compound tested, an IC50 concentration was calculated from a best-fit computer analysis of the calculated percent inhibition for the various dilutions of the compound. […] To determine the enzymatic activity, absorbance readings of the reactions were measured at 405 nm using a Molecular Devices Thermomax Plate Reader (Menlo Park Calif.). […] (for PTP-1C and PTPα assays), stopped, and calorimetrically analyzed as described above. […]

| Compound | pIC50 [1] | pIC50 [2] |
| --- | --- | --- |
| COc1ccc(-c2nc(-c3ccc(/C=C/C(=O)O)s3)n(CC(C)c3ccccc3)c2C(=O)NCCCCCC(=O)O)cc1 (centres unmarked) | 5.92 | 4.70 |
| O=C(O)/C=C/c1ccc(-c2nc(-c3ccc(Br)s3)[nH]c2-c2ccc(/C=C/C(=O)O)cc2)cc1 | 5.82 | 6.01 |
| CCCCNC(=O)c1[nH]c(-c2ccc(/C=C/C(=O)O)cc2)nc1-c1ccc(F)cc1 | 5.23 |  |
